C2C12 statin: suppressors of simvastatin-induced myotoxicity in C2C12 myotubes | 330,000 tested, 0.78% active | ATP luminescence, 48 h; scaled: DMSO 0, geranylgeraniol control 100 | rescue of ATP level, % at 7.49 µM;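 active = mean ATP rescue above about 67%, or every replicate alone reaching that limit, limit read from the data, passing the limit was not always enough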;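 also: myotubes were challenged with 10 µM simvastatin during compound exposure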
esBAF inh: inhibitors of esBAF chromatin remodeling in mouse ES cells. Bmi1-luciferase knock-in reporter, 24 h; 100% = twice the neutral-well signal. reporter increase, % at 12.5 µM. 350,000 tested, 2% active. AID 602393; in the data active = activation above about 40%;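 also: 0% = median of the plate's neutral control wells and 100% = double that signal; a rise in the Bmi1 reporter signal indicates esBAF inhibition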
E-selectin induc: induces E-selectin expression in human endothelial cells; P16581; HUVEC E-selectin immunofluorescence imaging; normalized: neutral wells 0, TNF-alpha wells 100; activation, % at 7.58 µM; 260,000 tested, 0.37% active; AID 686992;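 active = mean E-selectin-positive cell signal at least 10% of the positive control, reached in at least 60% of replicates, without over 20% cell loss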
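material = human umbilical vein endothelial cells (HUVEC), E-selectin induction | quantity = 3,000 cells/well | medium = EGM-2 growth medium on 0.1% gelatin-coated wells | technique = immunofluorescence imaging | read-out basis = % PE-positive cells | control set = TNF-alpha positive control, DMSO neutral control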
UUG fidelity: alters start codon recognition fidelity in yeast. S. cerevisiae UUG-firefly luciferase reporter, luminescence/redox ratio. AID 602363. activity score, % at 18.7 µM. hit rate 0.13% among 350,000;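 active = replicate mean at a twofold rise or more, about +100% in these data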;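 note: firefly luciferase made from a UUG start codon reports start codon fidelity; reporter light over untreated wells divided by growth signal over untreated wells; some hits fall short of that in this replicate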
PglD DTNB: inhibitors of Campylobacter jejuni PglD acetyltransferase; inhibition, % at 12.5 µM; AID 602405; 360,000 tested, 0.098% active; purified PglD enzyme, DTNB colorimetric CoA detection; in the data active = inhibition above about 16%, passing the limit was not always enough
PGC1a acetyl inh: modulators of PGC1a acetylation | inhibition, % at 15.6 µM | 350,000 tested, 0.17% active | U2OS PGC1a acetylation, AlphaScreen anti-acetyl-lysine; with virally co-expressed GCN5 acetyltransferase | AID 651687;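 active = every replicate shows inhibition of at least 40%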;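 also: 0% = neutral control wells and 100% = positive control wells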
* hit, by the source's call; · = no result given. Shown are actives, neighbours in structure and some others; about 2.8% of the full set was active somewhere.

Compound	C2C12 statin	esBAF inh	E-selectin induc	UUG fidelity	PglD DTNB	PGC1a acetyl inh
COc1ccc(CN(C)C[C@H]2Oc3c(NC(=O)Nc4ccc(OC)cc4)cccc3C(=O)N([C@@H](C)CO)C[C@H]2C)cc1	-45.5	-4.8	0.6	16.5	-1.6	2.5
COc1ccc(CN(C)C[C@H]2Oc3c(NC(=O)NC(C)C)cccc3C(=O)N([C@@H](C)CO)C[C@H]2C)cc1	1.0	0.9	-1.6	34.3	16.3*	-4.7
C[C@@H]1CN([C@@H](C)CO)C(=O)c2cc(NC(=O)C3CCCCC3)ccc2O[C@@H](C)CCCCO[C@@H]1CN(C)Cc1ccc2c(c1)OCO2	6.1	0.2	-0.2	7.4	0.8	·
O=C(N[C@@H]1CC[C@@H](CCNS(=O)(=O)c2cccc(Cl)c2)O[C@H]1CO)c1ccncc1	2.0	-1.8	0.0	-9.7	-0.2	-3.3
CO[C@@H]1CN(C)C(=O)c2ccc(NC(=O)C3CC3)cc2OC[C@H](C)N(C)C[C@H]1C	2.6	0.8	0.0	-1.7	-2.4	10.8
CC(=O)Nc1ccc(/C=C/c2nc3ccccc3[nH]c2=O)cc1	-2.4	20.3	-0.2	-17.5	3.3	-5.1
O=c1[nH]c2ccccc2nc1/C=C/c1ccc(Cl)cc1	119.8*	45.1*	·	0.1	-3.2	-13.4
Cn1c(/C=C/c2ccc(Cl)cc2)nc2ccccc2c1=O	-56.1	68.7*	·	-13.0	-2.0	1.7
CC(NC(=O)C1CC=CCC1C(=O)O)C1CC2CCC1C2 (configuration not stated)	97.7*	-5.1	1.6	-7.7	2.5	-0.1
COc1ccc(C(=O)NC(C)C2CC3CCC2C3)cc1 (configuration not stated)	-1.3	3.8	0.1	-25.4	1.1	12.5
C[C@@H]1CN([C@@H](C)CO)C(=O)Cc2cc(NC(=O)Nc3ccc(F)cc3)ccc2O[C@@H]1CN(C)S(=O)(=O)c1ccc(F)cc1	13.8	-5.9	0.7	2.2	-8.2	0.6
Cc1ccsc1C(=O)Nc1cc(Cl)ccc1-n1cncn1	12.8	-3.8	4.9	-17.9	-0.8	61.0*
Fc1ccccc1Cn1nnc2c(NCCc3ccccn3)ncnc21	1.0	47.7*	·	71.3	3.7	1.0
C=CCNc1nc(-c2ccc(OC)cc2OC)cs1	7.8	54.7*	·	-17.2	3.2	2.5
C[C@H](CO)N1C[C@H](C)[C@H](CN(C)S(=O)(=O)c2cn(C)cn2)Oc2ccc(NC(=O)C3CCCCC3)cc2C1=O	20.0	3.5	0.0	5.8	1.5	8.4
NC(=O)c1cc2c3ccccc3ccn2c1-c1ccccc1	-6.5	49.5*	0.0	-14.0	-8.0	-11.5
Cn1ccnc1SCC(=O)Nc1ccccc1	136.9*	-0.4	·	-11.0	-4.3	-19.3
Cc1cccc(NC(=O)CSc2nccn2C)c1	·	·	·	·	·	-0.4
O=C(CSc1nccn1Cc1ccccc1)Nc1ccccc1	2.3	15.3	0.6	-15.9	10.5	-3.9
COC(=O)c1ccc(NC(=O)CSc2nccn2CCc2ccccc2)cc1	-62.5	45.8*	·	-25.4	4.9	-36.6

Part of the list above with just PGC1a acetyl inh and esBAF inh.
SMILES,PGC1a acetyl inh,esBAF inh
C[C@H](CO)N1C[C@H](C)[C@H](CN(C)S(=O)(=O)c2cn(C)cn2)Oc2ccc(NC(=O)C3CCCCC3)cc2C1=O,8.4,3.5
NC(=O)c1cc2c3ccccc3ccn2c1-c1ccccc1,-11.5,49.5*
Cn1ccnc1SCC(=O)Nc1ccccc1,-19.3,-0.4

(listing goes on)
Compound	C2C12 statin	esBAF inh	E-selectin induc	UUG fidelity	PglD DTNB	PGC1a acetyl inh
Cc1cccc(NC(=O)CSc2nccn2Cc2ccco2)c1	0.3	44.0*	0.2	-28.8	-7.9	-9.5
Cn1ccnc1SCC(=O)Nc1ccc(SC(F)F)cc1	18.1	82.1*	1.1	-19.0	-4.0	-5.7
C[C@@H]1CN([C@@H](C)CO)S(=O)(=O)c2ccc(-c3ccc(F)cc3)cc2O[C@H]1CN(C)S(C)(=O)=O	-9.7	2.5	-0.6	11.9	-2.4	37.0
C[C@@H]1CN([C@H](C)CO)C(=O)c2cc(-c3cccc(F)c3)cnc2O[C@H]1CN(C)CC1CCOCC1	1.0	1.2	-0.4	-3.5	-4.5	-4.5
O=C(NCc1cccc2ccccc12)c1cccs1	21.6	54.7*	-0.1	-3.3	-1.7	·
COc1ccc(OC)c(-c2cc(C(=O)NCCCn3ccnc3)no2)c1	160.9*	-6.0	·	·	·	-1.1
C[C@H](CO)N1C[C@H](C)[C@H](CN(C)Cc2ccc(Oc3ccccc3)cc2)Oc2ccc(NC(=O)CCCCCC(=O)Nc3ccccc3N)cc2CC1=O	-7.0	-5.0	49.8*	2.5	1.9	13.4
C[C@H]1CN([C@@H](C)CO)C(=O)Cc2cc(NC(=O)CCCCCC(=O)Nc3ccccc3N)ccc2O[C@H]1CN(C)Cc1ccc(Oc2ccccc2)cc1	103.7*	-6.0	-5.9	3.6	-3.0	-5.6

Source: PubChem (Broad Institute)
